Data on two compounds can be found in ChEMBL document CHEMBL1147661, “The first potent inhibitor of mammalian group X secreted phospholipase A2: elucidation of sites for enhanced binding” (J Med Chem, 2006).

In assay [1] the target is T1, Group 10 secretory phospholipase A2 (Homo sapiens, UniProt O15496).
T1 sequence (O15496 whole entry): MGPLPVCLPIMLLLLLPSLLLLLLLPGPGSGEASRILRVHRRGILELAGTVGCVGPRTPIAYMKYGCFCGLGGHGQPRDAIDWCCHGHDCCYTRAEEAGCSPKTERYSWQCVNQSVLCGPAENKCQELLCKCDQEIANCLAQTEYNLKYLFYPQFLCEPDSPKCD
The assay is described as follows: Inhibition of human recombinant sPLA2 G10.

Assay [2] has as its target T2, Group 10 secretory phospholipase A2 (Mus musculus, UniProt Q9QXX3).
T2 sequence (Q9QXX3 whole entry): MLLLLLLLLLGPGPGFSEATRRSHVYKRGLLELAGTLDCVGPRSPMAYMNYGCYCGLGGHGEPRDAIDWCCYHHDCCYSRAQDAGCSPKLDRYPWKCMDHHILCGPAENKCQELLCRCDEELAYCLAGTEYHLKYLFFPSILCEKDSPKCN
The assay is described as follows: Inhibition of mouse recombinant sPLA2 G10.

Assay [3] addresses T3, Phospholipase A2, membrane associated (Mus musculus, UniProt P31482).
T3 sequence (P31482 whole entry): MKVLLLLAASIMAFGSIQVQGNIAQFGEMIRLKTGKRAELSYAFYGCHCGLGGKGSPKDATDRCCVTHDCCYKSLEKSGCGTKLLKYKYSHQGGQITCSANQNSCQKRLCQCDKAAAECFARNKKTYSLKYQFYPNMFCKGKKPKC
Nature of the assay: Inhibition of mouse recombinant sPLA2 G2A.

Assay [4] addresses T4, Phospholipase A2, membrane associated (Homo sapiens, UniProt P14555).
T4 sequence (P14555 whole entry): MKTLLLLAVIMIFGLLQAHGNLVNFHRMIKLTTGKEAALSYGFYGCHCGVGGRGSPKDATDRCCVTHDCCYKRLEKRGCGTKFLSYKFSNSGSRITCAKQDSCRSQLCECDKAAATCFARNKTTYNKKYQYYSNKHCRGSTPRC
The assay is described as follows: Inhibition of human recombinant sPLA2 G2A.

Turning to `CCc1c(C(=O)C(N)=O)c2c(OCC(=O)O)cc(C)cc2n1Cc1ccccc1`, the IC50 in assay [1] worked out at 75 nM; in assay [2], 75 nM; in assay [3], 50 nM.

As to `CCc1c(C(=O)C(N)=O)c2c(OCC(=O)O)cccc2n1Cc1ccccc1` [VARESPLADIB], the IC50 in assay [1] was 75 nM; in assay [4], 125 nM.

Broadly, the IC50 is the concentration at which inhibition is half-maximal.
